Values quoted from earlier work in patent publication US9603878B2, “Probiotic and prebiotic compositions, and methods of use thereof for treatment and prevention of graft versus host disease” (Evelo Biosciences, Inc., priority 2014, dated 2017).

Conditions: Pathogen/Pathobiont status of the OTU; Table 1, See, e.g., WO 2014/121304; cited from earlier work

Bacteroides fragilis
Pathogen Status: N
